Screening results deposited in PubChem by Broad Institute.
E-sel inducer – induces E-selectin expression in human endothelial cells; HUVEC E-selectin immunofluorescence imaging; normalized: neutral wells 0, TNF-alpha wells 100; activation, % at 7.58 µM; hit rate 0.37% among 260,000;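 active = mean E-selectin-positive cell signal at least 10% of the positive control, reached in at least 60% of replicates, without over 20% cell loss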
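Assay system: HUVEC primary endothelial cells. Input: 3,000 HUVEC seeded per well. Doses: one compound dose added by pin transfer. Read-out basis: % PE-positive cells. Benchmarks: TNF-alpha high, DMSO low. Detection: immunofluorescence imaging. Buffer or medium: EGM-2, gelatin.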
esBAF inh – blocks esBAF chromatin remodeling in mouse ES cells; Bmi1-luciferase knock-in reporter, 24 h; 100% = twice the neutral-well signal; reporter increase, % at 12.5 µM; hit rate 2% among 350,000; in the data active = activation above about 40%;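 also: 0% = median of the plate's neutral control wells and 100% = double that signal; a rise in the Bmi1 reporter signal indicates esBAF inhibition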
PglD DTNB – PglD (C. jejuni) enzyme inhibition; purified PglD enzyme, DTNB colorimetric CoA detection; inhibition, % at 12.5 µM; hit rate 0.098% among 360,000; AID 602405; in the data active = inhibition above about 16%, passing the limit was not always enough
UUG fidelity – modulators of start codon recognition fidelity in yeast; S. cerevisiae UUG-firefly luciferase reporter, luminescence/redox ratio; activity score, % at 18.7 µM; hit rate 0.13% among 350,000; AID 602363;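 active = replicate mean at a twofold rise or more, about +100% in these data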;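 note: firefly luciferase made from a UUG start codon reports start codon fidelity; reporter light over untreated wells divided by growth signal over untreated wells; some hits fall short of that in this replicate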
Statin myotox sup – suppression of simvastatin myotoxicity; hit rate 0.78% among 330,000; C2C12 myotubes + simvastatin, ATP luminescence, 48 h; scaled: DMSO 0, geranylgeraniol control 100; rescue of ATP level, % at 7.49 µM;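 active = mean ATP rescue above about 67%, or every replicate alone reaching that limit, limit read from the data, passing the limit was not always enough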;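 also: myotubes were challenged with 10 µM simvastatin during compound exposure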
PGC1a acetyl inh – lowers PGC1a acetylation signal in U2OS cells; AlphaScreen anti-acetyl-lysine; with virally co-expressed GCN5 acetyltransferase; inhibition, % at 15.6 µM; AID 651687; hit rate 0.17% among 350,000;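 active = every replicate shows inhibition of at least 40%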;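 also: 0% = neutral control wells and 100% = positive control wells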
The depositor's hits bear a star; · = not tested or not shown. Compounds with a hit are over-represented: about 2.8% of the library has one in this group of screens.

#	Compound	E-sel inducer	esBAF inh	PglD DTNB
1	C[C@H](CO)N1C[C@H](C)[C@@H](CN(C)CC2CCCCC2)Oc2ccc(NC(=O)Nc3cccc4ccccc34)cc2C1=O	1	-5	-2
2	COc1ccc(NC(=O)Nc2cccc3c2O[C@@H](CN(C)C(=O)NC2CCCCC2)[C@@H](C)CN([C@H](C)CO)C3=O)cc1	38*	3	-3
3	C[C@@H]1CN([C@H](C)CO)C(=O)c2cccc(NC(=O)Nc3ccc(F)cc3)c2O[C@H]1CN(C)C(=O)NC1CCCCC1	66*	-1	10
4	C[C@H](CO)N1C[C@H](C)[C@H](CN(C)C(=O)NC2CCCCC2)Oc2c(NC(=O)Nc3ccc(F)cc3)cccc2C1=O	-6	0	3
5	C[C@H]1CN([C@@H](C)CO)C(=O)c2cc(NC(=O)C3CC3)ccc2O[C@@H]1CN(C)S(=O)(=O)c1cccs1	-1	6	0
6	C[C@@H]1CN([C@H](C)CO)S(=O)(=O)c2ccc(Br)cc2O[C@H]1CN(C)C(=O)C1CCC1	1	·	·
7	C[C@H]1CCCCO[C@@H](CN(C)CC2CCCCC2)[C@@H](C)CN([C@@H](C)CO)C(=O)c2cc(NC(=O)c3ccncc3)ccc2O1	0	·	·
8	O=C(C[C@@H]1CC[C@H]2[C@@H](COC[C@@H](O)CN2S(=O)(=O)c2ccccc2)O1)N1CCOCC1	0	-2	0
9	C[C@@H]1CN([C@@H](C)CO)C(=O)c2cccc(NC(=O)Nc3ccc(F)cc3)c2O[C@H]1CN(C)CC1CCCCC1	58*	1	6
10	C[C@H](CO)N1C[C@H](C)[C@H](CN(C)CC2CCCCC2)Oc2c(NC(=O)Nc3ccc(F)cc3)cccc2C1=O	-9	18	6
11	c1coc(CSc2ncnc3c2oc2ccccc23)c1	·	56*	-5
12	Fc1ccccc1CSc1ncnc2c1oc1ccccc12	·	42*	2

#	UUG fidelity	Statin myotox sup	PGC1a acetyl inh
1	3	96*	10
2	3	-28	12
3	21	0	-9
4	4	3	2
5	15	9	9
6	·	6	-4
7	·	·	·
8	-5	8	-10
9	15	38	-5
10	9	7	-9
11	-12	3	-11
12	-11	2	-3

Continued (4 carried over from the part before).
#	Compound	E-sel inducer	esBAF inh	PglD DTNB
9	C[C@@H]1CN([C@@H](C)CO)C(=O)c2cccc(NC(=O)Nc3ccc(F)cc3)c2O[C@H]1CN(C)CC1CCCCC1	58*	1	6
10	C[C@H](CO)N1C[C@H](C)[C@H](CN(C)CC2CCCCC2)Oc2c(NC(=O)Nc3ccc(F)cc3)cccc2C1=O	-9	18	6
11	c1coc(CSc2ncnc3c2oc2ccccc23)c1	·	56*	-5
12	Fc1ccccc1CSc1ncnc2c1oc1ccccc12	·	42*	2
13	c1ccc(CSc2ncnc3c2oc2ccccc23)cc1	·	·	-7
14	CCCSc1ncnc2c1oc1ccccc12	·	27	-1
15	C/C=C/c1cccc(-c2nc(C(=O)NCc3ccc(OC)cc3)cc3c2[C@H](CCO)N([S@@](=O)C(C)(C)C)C3)c1	0	-5	1
16	COCC(=O)N[C@@H]1C=C[C@@H](CC(=O)NCc2ccc(Cl)cc2)O[C@H]1CO	0	-2	3
17	COc1ccc(CCC(=O)N/N=C/c2ccc3c(c2)OCO3)cc1	1	56*	·
18	O=C(CCc1ccccc1)NCC(=O)N/N=C/c1ccc2c(c1)OCO2	1	·	·
19	COc1ccc(OC)c(S(=O)(=O)N/N=C\c2ccc3c(c2)OCO3)c1	·	47*	-1
20	Cc1ccc(C(=O)CCNc2ccccc2)o1	·	52*	-4
21	Clc1ccccc1N/N=C/c1ccc2c(c1)OCO2	0	78*	1
22	Cc1ccc(C(=O)CCNc2ccc(Br)cc2)o1	·	27	0
23	COc1ccc(C#Cc2cnc3c(c2)C(=O)N([C@H](C)CO)C[C@@H](C)[C@H](CN(C)C(=O)CC2CC2)O3)cc1	0	-16	10
24	CC(C)CC#Cc1ccc([C@H]2[C@H](CO)N3C(=O)CN(C(=O)Cc4cccnc4)C[C@@H]23)cc1	0	·	·

#	UUG fidelity	Statin myotox sup	PGC1a acetyl inh
9	15	38	-5
10	9	7	-9
11	-12	3	-11
12	-11	2	-3
13	-8	·	-1
14	-11	5	-8
15	·	-9	29
16	·	-9	3
17	·	2	·
18	·	·	·
19	-15	10	·
20	6	40	-9
21	1	-1	1
22	-26	·	-9
23	·	1	10
24	·	·	7

The list goes on:
#	Compound	E-sel inducer	esBAF inh	PglD DTNB
25	O=C(CSc1ncccn1)N/N=C/c1ccc2c(c1)OCO2	0	41*	-1
26	O=C(CSc1ccccn1)c1ccc2c(c1)OCO2	·	51*	-2
27	O=C(CNC(=O)c1ccccn1)N/N=C/c1ccc2c(c1)OCO2	·	12	·
28	CN(C)CCC(=O)c1ccc2c(c1)OCO2	·	-10	-5
29	O=C(CNc1ccccc1)N/N=C/c1ccc2c(c1)OCO2	31*	11	·
30	O=C(CCNc1ccccc1)c1ccc2c(c1)OCO2	·	92*	-3
31	Cc1noc(C)c1S(=O)(=O)Nc1ccc2c(c1)C(=O)N([C@H](C)CO)C[C@H](C)[C@@H](CN(C)Cc1ccc(Oc3ccccc3)cc1)O2	-9	-6	0
32	COc1ccc(NC(=O)Nc2ccc3c(c2)C(=O)N([C@H](C)CO)C[C@@H](C)[C@@H](CN(C)C(=O)Nc2ccc(F)cc2)O3)cc1	0	-17	0
33	C[C@@H]1CN([C@@H](C)CO)C(=O)c2cc(NC(=O)c3ccncc3)ccc2O[C@@H](C)CCCCO[C@@H]1CN(C)S(C)(=O)=O	0	-1	2
34	Cc1ccc(-c2nnc(SCC(C)C)n2C)cc1	·	55*	-2
35	COc1ccc(-c2nnc(SCc3csc(N)n3)n2C)cc1	·	6	3
36	CCCCSc1nnc(-c2ccc(OC)cc2)n1C	·	56*	0

#	UUG fidelity	Statin myotox sup	PGC1a acetyl inh
25	-6	4	·
26	-26	-2	3
27	·	-12	10
28	-5	·	·
29	·	1	4
30	-21	0	3
31	4	1	-7
32	22	-9	-11
33	9	-41	21
34	-14	-12	-1
35	-27	13	11
36	-19	-3	-2

(list continues)
#	Compound	E-sel inducer	esBAF inh	PglD DTNB
37	COCCOC(=O)N1C(=O)[C@@]2(c3cc(C#CCCO)ccc31)[C@H](C(=O)NC[C@H](O)c1ccccc1)[C@H]1C(=O)O[C@H](c3ccccc3)[C@H](c3ccccc3)N1[C@@H]2c1ccc(O)cc1	·	·	3
38	C[C@H]1CN([C@@H](C)CO)C(=O)c2cc(Br)cnc2O[C@@H]1CN(C)C(=O)c1ccc(F)cc1	15	3	2
39	C/C(=N\OCc1ccc(C#N)cc1)c1ccc(S(=O)(=O)N(C)C)cc1	0	51*	-3
40	CN(C)S(=O)(=O)c1ccc(C(=O)OCCc2ccccc2)cc1	·	0	-7
41	C[C@@H]1CN([C@@H](C)CO)C(=O)c2cccc(NC(=O)Nc3ccc(F)cc3)c2O[C@@H]1CN(C)S(=O)(=O)c1cn(C)cn1	-9	-1	·
42	Cc1cccc2nc(=S)n(C(=O)c3ccco3)n12	·	75*	-1
43	CCCNC(=O)N(C)C[C@H]1Oc2ncc(C3=CCCC3)cc2C(=O)N([C@@H](C)CO)C[C@H]1C	0	3	3
44	CCCNC(=O)N(C)C[C@H]1Oc2ncc(C3=CCCC3)cc2C(=O)N([C@H](C)CO)C[C@@H]1C	134*	4	0
45	C[C@@H]1CN([C@H](C)CO)C(=O)c2cc(C3=CCCC3)cnc2O[C@@H]1CN(C)C(=O)Nc1ccccc1	59*	-2	2

#	UUG fidelity	Statin myotox sup	PGC1a acetyl inh
37	-6	·	-4
38	13	-7	3
39	-3	6	·
40	-3	-2	12
41	·	12	-33
42	-7	4	39
43	-7	22	-6
44	11	14	-1
45	13	47	-11
